Earlier results on one compound are cited in US20250009714A1, “SELECTION AND TREATMENT OF SUBJECTS HAVING A CIRCULATING MYELOID CELL INFLAMMATORY PHENOTYPE” (Tranquis Therapeutics, Inc., priority 2021, published 2025).

In the data set the test system is SOD1-G93A mice. The following applies: SOD1 mouse model; cited from earlier work.

For `Nc1nc2ccc(OC(F)(F)F)cc2s1` [riluzole], the “survival benefit in the SOD1 model (approved ALS treatments)” value was “failed to display survival benefits”.
